Patent US8124647B2 (priority 2002, dated 2012)
Read-outs that look alike come from different tables or passages of the source.

By UniProt entry, the sequences of proteins in these tests, tags left out.
UniProt P10275, whole entry: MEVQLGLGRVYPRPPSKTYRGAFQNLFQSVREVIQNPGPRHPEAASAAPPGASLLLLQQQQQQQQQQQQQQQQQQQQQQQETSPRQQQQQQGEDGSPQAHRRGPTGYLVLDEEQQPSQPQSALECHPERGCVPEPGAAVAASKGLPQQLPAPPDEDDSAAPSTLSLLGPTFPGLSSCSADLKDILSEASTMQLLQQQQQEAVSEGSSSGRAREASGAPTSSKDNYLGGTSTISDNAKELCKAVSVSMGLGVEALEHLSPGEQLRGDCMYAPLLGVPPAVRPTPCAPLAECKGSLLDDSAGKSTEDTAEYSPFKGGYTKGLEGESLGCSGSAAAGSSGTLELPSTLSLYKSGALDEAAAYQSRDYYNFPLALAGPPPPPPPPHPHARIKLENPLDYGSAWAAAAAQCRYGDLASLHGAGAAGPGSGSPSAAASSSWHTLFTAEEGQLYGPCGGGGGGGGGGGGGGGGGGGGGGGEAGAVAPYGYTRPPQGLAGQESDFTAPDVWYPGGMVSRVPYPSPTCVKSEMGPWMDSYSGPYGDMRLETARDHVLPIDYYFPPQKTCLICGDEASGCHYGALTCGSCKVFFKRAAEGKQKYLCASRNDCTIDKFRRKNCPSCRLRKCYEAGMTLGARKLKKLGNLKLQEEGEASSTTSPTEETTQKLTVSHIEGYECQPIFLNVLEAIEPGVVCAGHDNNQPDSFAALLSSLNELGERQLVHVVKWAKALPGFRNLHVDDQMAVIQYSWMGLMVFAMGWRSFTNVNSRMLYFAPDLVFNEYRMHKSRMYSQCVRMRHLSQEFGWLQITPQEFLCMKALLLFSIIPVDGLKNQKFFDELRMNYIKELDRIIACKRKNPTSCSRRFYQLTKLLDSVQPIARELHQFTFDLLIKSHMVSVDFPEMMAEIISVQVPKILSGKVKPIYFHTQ

How the values were obtained:
[1] = biological target: T1, human androgen receptor (Homo sapiens, UniProt P10275); details: in the presence of 1 nM DHT
[2] = biological target: T1, human androgen receptor; experiment: androgenic activity (EC50 and intrinsic activity), transactivation bioassay in CHO-AR-pMMTV-LUC cells (Table 4); assay type: cell-based
Description: Compounds were tested for their Androgen Receptor activity in a transactivation assay and in a binding assay.
The (anti-)androgenic activity of test compounds (EC50 and intrinsic activity) was determined in an in vitro bioassay of Chinese hamster ovary (CHO) cells stably transfected with the human androgen receptor expression plasmid and a reporter plasmid in which the MMTV-promoter is linked to the luciferase reporter gene. The cell-line CHO-AR-pMMTV-LUC 1G12-A5-CA is described in Schoonen et al. (2000), Journal of Steroid Biochemistry and Molecular Biology 74(4):213-222. The antiandrogenic activity of a test compound was determined by the inhibition of the transactivation via the androgen receptor of the enzyme luciferase in the presence of 1 nM DHT (5α-dihydrotestosterone, 17β-hydroxy-5α-androstan-3-one). Intrinsic activity of antiandrogenic activity was determined in the presence of the reference antiandrogen 2-Hydroxy-2-methyl-N-(4-nitro-3-trifluoromethyl-phenyl)-propionamide(Hydroxyflutamide), and set at 100%. For androgenic activity, maximal intrinsic activity in the presence of 100 nM DHT was set at 100%.

SMILES: COc1ccc2c(Sc3ccccc3[N+](=O)[O-])cn(CCN3CCOCC3)c2c1
- ant efficacy ([1]; reference antiandrogen Hydroxyflutamide set at 100%): + (+ between 0.50 and 0.80)
- EC50 ([1]; read-out: ant EC50, antiandrogenic activity): < 1 µM
- ago efficacy ([2]; maximal intrinsic activity in the presence of 100 nM DHT set at 1.00): ± (± between 0.20 and 0.50)
- EC50 ([2]; read-out: ago EC50, androgenic activity, CHO-AR-pMMTV-LUC cells): 1 to 10 µM
